Test results taken from patent publication US9664696B1, “Compounds for determining the presence of hydrogen sulfide and methods of use” (University of Oregon, priority 2013, dated 2017).

Key:
[1] = Photoactivation experiments of azide-containing fluorophores; conditions: 5 μM, PIPES buffer pH 7.4, 37° C., fluorescence excitation
[2] = Colorimetric selectivity studies, H2S versus amino acids and RSONS
[3] = 30 equivalents of H2S then added, 45 min

Compound | photostability under continuous exposure [1] | absorbance peak at 534 nm after initial incubation ([2]; 3 μM compound, 10 equivalents of H2S, glycine, serine, tyrosine, lysine, glutathione, N-acetyl-L-cysteine) | H2S response after incubation of GSH and N-acetylcysteine [2, 3] | colorimetric response to H2S after incubation with biological nucleophiles [2, 3] | visual color response ([2]; 50 equivalents of different amino acids or RSONS)
hydrosulfide naphthalimide | probe photoactivation | – | – | – | –
2,6-dansyl azide | probe photoactivation | – | – | – | –
O=[N+]([O-])c1ccc(Cl)c2nonc12 | – | only the H2S samples showed the characteristic absorbance peak at 534 nm | somewhat eroded | robust colorimetric response to H2S | only H2S generates the characteristic color
